Molecular target: T1, μ-opioid receptor (MOR) (Homo sapiens, UniProt P35372)
T1 construct: host or cells: cAMP Hunter CHO-K1 OPRM1 Gαi cell line
Test: MOR agonist cAMP assay (HitHunter cAMP, forskolin-stimulated)
Assay type: cell-based
Procedure: (§1) The HitHunter® cAMP chemiluminescent assay kit (DiscoveRx, Cat# 90-0075 SM25) was used to detect cAMP production in cAMP Hunter™ Gαi cell lines over expressing either Human-ORPM1 (Discoverx, Catalog# 95-0107C2) or Human-ORPD1 (DiscoveRx, Catalog# 95-0108C2). Opioid agonist binding to the Gαi receptors inhibits the intracellular cAMP accumulation induced by forskolin, which activates adenylate cyclase and increases intracellular levels of cAMP.
(§2) Cells were cultured in media consisting of Ham's F-12 Nutrient Mix (Life Technologies, Catalog#31765035), 10% FBS (Life Technologies, Catalog# 16140-071), 4 mM GlutaMAX (Life Technologies, Catalog#35050-061), […] (Life Technologies), 100 ug/ml of Penn-Strep (Life Technologies) and 0.5 mg/ml Geneticin (Life Technologies, Catalog# 10131-027). The cultures were maintained at 37° C. under 5% CO2.
(§3) In preparation for cAMP assay, the cells were seeded at a density of 300,000 cells/ml in 100 ul of media/well in 96-well microplate. Wells that were designated for cAMP standards were left empty.
(§4) Opioid agonist serial dilutions were prepared in separate dilution plate (11-point series of 3× (3-fold) dilution) in Cell Assay buffer, including 3× forskolin for Gαi target. For Hunter CHO-K1 OPRM1 or CHO-K1 OPRD1 Gαi Cell Lines, the final forskolin concentration was 20 uM.
(§5) 15 ul of each 3× opioid agonist serial dilution was added in the presence of forskolin in duplicate to the designated wells. The final concentration of each dilution was at 3× of the final screening concentration. […]
(§6) Cellular cAMP concentrations were measured using the HitHunter cAMP Assay kit following the manufacturer's protocol. […] The amount of signal is directly proportional to the amount of cAMP in cells and can be quantified using cAMP standards. The assay plates were read using a PerkinElmer Envision instrument to detect the chemiluminescence signal in each well (luminescence reader at 0.1 to 1 second/well). Data analysis was performed using Graphpad Prism 7.EC50 was calculated by nonlinear regression, using the four-parameter hill equation.

Chains of the proteins cited; added tags and fusions are not shown.
UniProt P35372, whole entry: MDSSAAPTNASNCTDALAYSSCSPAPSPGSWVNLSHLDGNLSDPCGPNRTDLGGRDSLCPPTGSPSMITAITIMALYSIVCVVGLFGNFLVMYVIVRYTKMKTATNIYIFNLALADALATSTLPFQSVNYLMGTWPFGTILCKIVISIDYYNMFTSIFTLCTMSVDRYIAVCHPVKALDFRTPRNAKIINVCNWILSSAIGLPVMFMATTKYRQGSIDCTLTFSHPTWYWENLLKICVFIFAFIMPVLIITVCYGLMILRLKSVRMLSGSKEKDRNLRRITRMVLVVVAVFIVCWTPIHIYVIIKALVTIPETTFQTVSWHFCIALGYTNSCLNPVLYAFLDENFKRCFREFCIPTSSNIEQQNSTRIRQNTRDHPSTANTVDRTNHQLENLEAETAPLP

Q: For `Cc1cc(O)cc(C)c1C[C@H](N)C(=O)N[C@H](CCCNC(=N)N)C(=O)N[C@@H](Cc1ccccc1)C(=O)N[C@H](CCCCN)C(N)=O` [compound 2], which EC50 is on record?
A: < 1 nM

Q: How did the EC50 turn out when `Cc1cc(O)cc(C)c1C[C@H](N)C(=O)N[C@H](CCCNC(=N)N)C(=O)N[C@@H](Cc1ccccc1)C(=O)N[C@@H](CCCCN)C(N)=O` [compound 7] was run?
A: < 1 nM

Q: How did the EC50 turn out when `Cc1cc(O)cc(C)c1C[C@H](N)C(=O)N[C@H](CCCNC(=N)N)C(=O)N[C@H](Cc1ccccc1)C(=O)N[C@@H](CCCCN)C(=O)O` [compound 1] was run?
A: 10 to 50 nM

Molecular target: T2, δ-opioid receptor (DOR) (Homo sapiens, UniProt P41143)
T2 construct: host or cells: cAMP Hunter CHO-K1 OPRD1 Gαi cell line
Test: DOR agonist cAMP assay (HitHunter cAMP, forskolin-stimulated)
Assay type: cell-based
Procedure: as §1, §2, §3, §4, §5, §6

Q: `Cc1cc(O)cc(C)c1C[C@H](N)C(=O)N[C@H](CCCNC(=N)N)C(=O)N[C@@H](Cc1ccccc1)C(=O)N[C@H](CCCCN)C(N)=O` [compound 2] was tested. Which EC50 did it give?
A: > 200 nM

Q: `Cc1cc(O)cc(C)c1C[C@H](N)C(=O)N[C@H](CCCNC(=N)N)C(=O)N[C@@H](Cc1ccccc1)C(=O)N[C@@H](CCCCN)C(N)=O` [compound 7] was tested. Which EC50 did it give?
A: 10 to 50 nM

Q: How did the EC50 turn out when `Cc1cc(O)cc(C)c1C[C@H](N)C(=O)N[C@H](CCCNC(=N)N)C(=O)N[C@H](Cc1ccccc1)C(=O)N[C@@H](CCCCN)C(=O)O` [compound 1] was run?
A: > 200 nM
